Data: patent EP4342890A1, “PLATFORM AND SCAFFOLD FOR FAP TARGETING AGENTS” (Erasmus University Rotterdam Medical Center, priority 2022, dated 2024)

The compounds below were run against T1, FAP (Homo sapiens, UniProt Q12884) (assay: In vitro inhibition assay on human FAP (Z-GP-AMC substrate)). Details: enzymatic assay; 20 µM Z-GP-AMC, 20 nM FAP; unit inferred.
T1 sequence (Q12884 1-760): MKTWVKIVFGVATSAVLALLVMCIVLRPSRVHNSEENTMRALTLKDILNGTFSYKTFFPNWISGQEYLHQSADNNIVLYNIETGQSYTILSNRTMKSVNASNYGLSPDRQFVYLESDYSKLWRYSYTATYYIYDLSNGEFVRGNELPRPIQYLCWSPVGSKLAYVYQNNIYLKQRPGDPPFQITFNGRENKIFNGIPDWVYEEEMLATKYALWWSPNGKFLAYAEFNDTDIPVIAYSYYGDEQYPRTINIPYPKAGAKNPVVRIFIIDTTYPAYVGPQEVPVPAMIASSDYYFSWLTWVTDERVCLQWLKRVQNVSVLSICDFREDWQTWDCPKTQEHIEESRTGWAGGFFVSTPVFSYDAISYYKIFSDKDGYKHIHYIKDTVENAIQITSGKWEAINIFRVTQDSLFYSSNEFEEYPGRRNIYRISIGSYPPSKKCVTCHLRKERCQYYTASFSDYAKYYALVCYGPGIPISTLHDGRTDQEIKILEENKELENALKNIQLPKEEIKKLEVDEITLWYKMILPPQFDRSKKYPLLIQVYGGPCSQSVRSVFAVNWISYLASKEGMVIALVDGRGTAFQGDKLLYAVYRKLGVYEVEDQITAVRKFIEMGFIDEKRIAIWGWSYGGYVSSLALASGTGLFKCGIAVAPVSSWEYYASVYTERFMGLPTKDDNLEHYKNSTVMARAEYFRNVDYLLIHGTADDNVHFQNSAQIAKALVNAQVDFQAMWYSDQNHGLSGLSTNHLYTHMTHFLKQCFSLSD
Assay type: biochemical
Protocol: Enzymatic activity of human FAP (hFAP) and mouse FAP (mFAP) on the Z-GP-AMC substrate was measured at room temperature on a Hidex microplate reader by monitoring the fluorescence at an excitation wavelength of 360 nm and an emission wavelength of 465 nm. The reaction mixture contained 20 µM substrate, 20 nM FAP, assay buffer (50 mM Tris, 100 mM NaCl, 1 mM EDTA, pH 7.4) and tested compound (serial dilution from 10^-6 to 10^-12) in a total volume of 50 µL. The IC50 value is defined as the concentration of inhibitor required to reduce the enzyme activity by 50% after addition of the substrate.

Q: With “1-(6-((3-((4-((2-((S)-2-Cyano-4,4-difluoropyrrolidin-1-yl)-2-oxoethyl)carbamoyl)quinolin-8-yl)oxy)propyl)amino)-6-oxohexyl)-3,3-dimethyl-5-sulfo-2-((1E,3E)-5-((E)-1,3,3-trimethyl-5-sulfoindolin-2-ylidene)penta-1,3-dien-1-yl)-3H-indol-1-ium [eFAP-7]” as the compound, how does the IC50 read?
A: Its IC50 is 2.1 ± 0.6 nM.

Q: With `N#C[C@@H]1CC(F)(F)CN1C(=O)CNC(=O)c1ccnc2c(OCCCNC(=O)CN3CCC(NC(=O)CN4CCN(CC(=O)O)CCN(CC(=O)O)CCN(CC(=O)O)CC4)CC3)cccc12` [eFAP-10, (S)-2,2',2"-(10-(2-((1-(2-((3-((4-((2-(2-Cyano-4,4-difluoropyrrolidin-1-yl)-2-oxoethyl)carbamoyl)quinolin-8-yl)oxy)propyl)amino)-2-oxoethyl)piperidin-4-yl)amino)-2-oxoethyl)-1,4,7,10-tetraazacyclododecane-1,4,7-triyl)triacetic acid] as the compound, how does the IC50 read?
A: Its IC50 is 2.1 ± 0.3 nM.

Q: Which IC50 does the source give for `N#C[C@@H]1CC(F)(F)CN1C(=O)CNC(=O)c1ccnc2c(OCCCNC(=O)CN3CCN(C(=O)CN4CCN(CC(=O)O)CCN(CC(=O)O)CCN(CC(=O)O)CC4)CC3)cccc12` [eFAP-12, (S)-2,2',2"-(10-(2-(4-(2-((3-((4-((2-(2-Cyano-4,4-difluoropyrrolidin-l-yl)-2-oxoethyl)carbamoyl)quinolin-8-yl)oxy)propyl)amino)-2-oxoethyl)piperazin-1-yl)-2-oxoethyl)-1,4,7,10-tetraazacyclododecane-1,4,7-triyl)triacetic acid] here?
A: The IC50 was 2.1 ± 0.7 nM.
